# Membrane permeability of cyclic peptides

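Conditions beyond the assay type are not listed; see the original paper. The list need not hold all peptides of the study. Peptides that the database sets to -10, its floor, are left out.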

PAMPA is the parallel artificial membrane permeability assay, which has no cells and reads passive diffusion. Values are log10 P with P in cm/s, so -5 is more permeable than -7.

structure (SMILES)	PAMPA (log10 cm/s)
CCCN1CC(=O)N[C@@H](CC(C)C)C(=O)N[C@H](CC(C)C)C(=O)N2CCC[C@H]2C(=O)N(C)[C@H](CC(C)C)C(=O)N[C@@H](Cc2ccccc2)C(=O)N2CCC[C@H]2C1=O	-5.32
CCCN1CC(=O)N[C@@H](CC(C)C)C(=O)N[C@H](CC(C)C)C(=O)N2CCC[C@@H]2C(=O)N[C@@H](CC(C)C)C(=O)N[C@@H](Cc2ccccc2)C(=O)N2CCC[C@H]2C1=O	-6.48
CCCN1CC(=O)N(C)[C@@H](CC(C)C)C(=O)N(C)[C@H](CC(C)C)C(=O)N2CCC[C@@H]2C(=O)N(Cc2ccccc2)CC(=O)N[C@@H](Cc2ccccc2)C(=O)N2CCC[C@@H]2C1=O	-5.63
CC(C)C[C@@H]1NC(=O)[C@@H](CC(C)C)NC(=O)[C@H](C)NC(=O)[C@H](Cc2ccccc2)NC(=O)[C@H](CC(C)C)N(C)C(=O)[C@H]2CCCN2C1=O	-5.30
CC(C)C[C@H]1NC(=O)[C@@H](C)NC(=O)[C@H](Cc2ccccc2)NC(=O)[C@H](CC(C)C)N(C)C(=O)[C@@H]2CCCN2C(=O)[C@@H](CC(C)C)NC1=O	-6.79
CC(C)C[C@@H]1C(=O)N(C)[C@@H](CC(C)C)C(=O)N2CCC[C@@H]2C(=O)N(C)[C@@H](CC(C)C)C(=O)N[C@@H](Cc2ccccc2)C(=O)N2CCC[C@@H]2C(=O)N[C@H](C)C(=O)N1C	-5.50
CC(C)C[C@@H]1C(=O)N[C@@H](Cc2ccccc2)CC(=O)N2CCC[C@@H]2C(=O)N[C@H](CC(C)C)C(=O)N[C@@H](Cc2ccccc2)C(=O)N[C@@H](C)C(=O)N1C	-6.27
CC(C)C[C@@H]1C(=O)N(C)[C@@H](CC(C)C)C(=O)N2CCC[C@H]2C(=O)N(C)[C@@H](CC(C)C)C(=O)N[C@@H](Cc2ccccc2)C(=O)N2CCC[C@H]2C(=O)N[C@H](C)C(=O)N1C	-5.75
CC(C)C[C@H]1NC(=O)C[C@H](Cc2ccccc2)NC(=O)[C@H](Cc2ccccc2)NC(=O)[C@H](CC(C)C)N(C)C(=O)[C@@H]2CCCN2C(=O)[C@@H](CC(C)C)NC1=O	-5.13
CC(C)C[C@@H]1NC(=O)[C@H](C)NC(=O)[C@H](Cc2ccccc2)NC(=O)[C@@H](CC(C)C)N(C)C(=O)[C@@H]2CCCN2C(=O)[C@H](CC(C)C)NC1=O	-6.19
CC(C)C[C@@H]1NC(=O)[C@@H]2CCCN2C(=O)[C@@H](CC(C)C)N(C)C(=O)[C@@H](CC(C)C)N(C)C(=O)[C@H](C)NC(=O)[C@@H]2CCCN2C(=O)[C@H](Cc2ccccc2)NC1=O	-5.73
CC(C)C[C@H]1NC(=O)[C@H](CC(C)C)N(C)C(=O)[C@H](C)N(C)C(=O)[C@H](Cc2ccccc2)NC(=O)CN(Cc2ccccc2)C(=O)[C@H]2CCCN2C1=O	-5.70

A selection of 2 entries from above:

structure (SMILES)	PAMPA (log10 cm/s)
CC(C)C[C@H]1NC(=O)[C@H](CC(C)C)N(C)C(=O)[C@H](C)N(C)C(=O)[C@H](Cc2ccccc2)NC(=O)CN(Cc2ccccc2)C(=O)[C@H]2CCCN2C1=O	-5.70
CC(C)C[C@@H]1C(=O)N(C)[C@@H](CC(C)C)C(=O)N2CCC[C@@H]2C(=O)N(C)[C@@H](CC(C)C)C(=O)N[C@@H](Cc2ccccc2)C(=O)N2CCC[C@@H]2C(=O)N[C@H](C)C(=O)N1C	-5.50

Values of Townsend et al. 2020, doi:10.26434/chemrxiv.13335941.v1, as listed in CycPeptMPDB.